Laboratory results reported in ChEMBL document CHEMBL1938260, “Differential signaling properties at the kappa opioid receptor of 12-epi-salvinorin A and its analogues” (2012).

By UniProt entry, the sequences of proteins in these tests, tags left out. Where a name states a change or a piece, a line headed by the entry shows the natural chain unless it says otherwise.
UniProt P33535, whole entry, looked up: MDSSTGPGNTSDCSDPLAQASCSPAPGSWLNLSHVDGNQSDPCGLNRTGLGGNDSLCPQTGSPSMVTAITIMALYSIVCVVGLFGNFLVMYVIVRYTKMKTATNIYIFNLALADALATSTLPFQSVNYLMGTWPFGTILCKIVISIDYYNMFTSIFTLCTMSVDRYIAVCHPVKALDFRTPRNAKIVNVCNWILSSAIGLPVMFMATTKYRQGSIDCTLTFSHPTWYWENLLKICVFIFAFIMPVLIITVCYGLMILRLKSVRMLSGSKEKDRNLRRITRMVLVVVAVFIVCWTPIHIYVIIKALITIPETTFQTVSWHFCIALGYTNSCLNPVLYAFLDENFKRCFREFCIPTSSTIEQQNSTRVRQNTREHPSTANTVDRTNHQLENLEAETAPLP
UniProt P41145: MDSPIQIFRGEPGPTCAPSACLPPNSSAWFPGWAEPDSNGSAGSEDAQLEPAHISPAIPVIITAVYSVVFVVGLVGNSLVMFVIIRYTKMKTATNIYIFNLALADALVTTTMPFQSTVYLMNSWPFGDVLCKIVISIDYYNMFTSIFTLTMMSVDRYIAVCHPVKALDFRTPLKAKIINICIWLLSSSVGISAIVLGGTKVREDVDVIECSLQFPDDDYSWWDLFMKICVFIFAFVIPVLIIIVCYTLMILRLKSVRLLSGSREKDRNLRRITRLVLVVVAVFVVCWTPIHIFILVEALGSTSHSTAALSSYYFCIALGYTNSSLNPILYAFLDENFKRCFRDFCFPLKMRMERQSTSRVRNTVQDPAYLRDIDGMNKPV

How the values were obtained:
Mu-type opioid receptor = Mu-type opioid receptor (Rattus norvegicus, UniProt P33535); experiment: Displacement of [3H]diprenorphine from rat MOPR expressed in CHO cells
[1] = molecular target: T1, Kappa-type opioid receptor (Homo sapiens, UniProt P41145); experiment: Displacement of [3H]diprenorphine from human KOPR expressed in CHO cells
[2] = molecular target: T1, Kappa-type opioid receptor; experiment: Agonist activity at human KOPR expressed in CHO cells assessed as [35S]GTPgammaS binding after 60 mins by liquid scintillation counting
[3] = molecular target: T1, Kappa-type opioid receptor; experiment: Agonist activity at human KOPR expressed in U2OS cells assessed as beta-arrestin2 recruitment after 90 mins by DiscoveRx PathHunter assay

SMILES	Ki (Mu-type opioid receptor) [nM]	Ki [1] [nM]	EC50 [2] [nM]	EC50 [3] [nM]
COC(=O)[C@@H]1C[C@H](OC(C)=O)C(=O)[C@H]2[C@@]1(C)CC[C@H]1C(=O)O[C@@H](c3cc(Br)oc3Br)C[C@]21C	318	40		
CCOCO[C@H]1C[C@@H](C(=O)OC)[C@]2(C)CC[C@H]3C(=O)O[C@@H](c4ccoc4)C[C@]3(C)[C@H]2C1=O		2.5	9.5	123
COCO[C@H]1C[C@@H](C(=O)OC)[C@]2(C)CC[C@H]3C(=O)O[C@@H](c4ccoc4)C[C@]3(C)[C@H]2C1=O		4.4		
